# In PubChem BioAssay AID489008 (National Center for Advancing Translational Sciences (NCATS), 2010):
# Chains of the proteins cited; added tags and fusions are not shown. Lines headed by an entry give the natural chain unless they say otherwise; changes in a name come on top.
# UniProt P02791: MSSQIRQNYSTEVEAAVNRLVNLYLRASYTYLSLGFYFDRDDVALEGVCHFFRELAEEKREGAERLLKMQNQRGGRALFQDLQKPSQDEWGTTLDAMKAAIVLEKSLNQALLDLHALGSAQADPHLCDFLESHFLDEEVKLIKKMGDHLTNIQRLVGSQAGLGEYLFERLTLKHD
# The list shows a part of the results, in another mix than the full data. Inconclusive results are not listed. Active and inactive are the calls of the source. The call rests on the fitted dose curve; in most records, active means well fitted inhibition curve with a large enough effect; inconclusive means small, poorly fitted or top-dose-only effect; inactive means flat fitted curve, though single readings scatter.
# Biological target: Ferritin light chain (Equus caballus) (UniProt P02791)
# Test: Confirmation Assay for Identification of Novel General Anesthetics; further: nearly all actives have a fitted effect of over 40% in size
# Settings: apoferritin 1-aminoanthracene fluorescence displacement
# Excerpt: Anesthetic development has remained a largely empirical process. There are growing concerns about the cognitive effects of known general anesthetics and acceleration of the onset of neurodegenerative disease. The compounds' toxicity and multiple specific binding targets in the mammalian brain [4] has made them less attractive as drug leads. In this assay, a GABAergic mimetic model system, apoferritin and a profluorescent 1-aminoanthracene ligand (1-AMA), was used to construct a competitive binding assay for identification of novel general anesthetics. The assay was validated for 1-AMA using other known anesthetics, such as isoflurane (CID:3763) and propofol (CID: 4943), [6]. […]
# in PBS) in columns 3, 4 as negative control and 1-AMA/apoferritin mixture (10 uM horse-spleen apoferritin in 50% saturated 1-aminoanthracene in PBS) in columns 1, 2, 5-48) was dispensed into 1536-well Greiner black assay plates. […] The plates were incubated for 10 min at room temperature, and then read on an EnVision HTS multilabel reader (Perkin-Elmer, Waltham, MA) (end point read, 3 min/plate) using Fura2 BFP excitation filter (380 nm, bandwidth 10 nm) and fluorescein emission filter (535 nm, bandwidth 25 nm) set. […] Activity was computed as the normalized fluorescence response relative to free 1-AMA and 1-AMA/apoferritin complex values. […]
# Potency means the concentration at half of the fitted maximal effect.
compound,measurement,value
CCOC(=O)NC(Sc1ccccc1)C(Cl)(Cl)Cl (stereo unspecified),Potency,active: 15.8 µM
